The values below are quoted from earlier work in patent US11965892B2, “HLA-based methods and compositions and uses thereof” (BioNTech US Inc., priority 2017, dated 2024).

The conditions of the data set: more than 25 clinical trials; cited from earlier work.

Regarding poly-ICLC, the toxicity profile entry is “relatively benign toxicity profile”.
